# Yeast mating assay 1: variants of the scFv Ab-14

Target peptide (SARS-CoV-2 spike, HR2 region): PDVDLGDISGINAS

Ab-14 is the parent antibody, in scFv form: VH, then a 15-residue (Gly4Ser)3 linker, then VL. The heavy chain is unchanged in all variants.
VH: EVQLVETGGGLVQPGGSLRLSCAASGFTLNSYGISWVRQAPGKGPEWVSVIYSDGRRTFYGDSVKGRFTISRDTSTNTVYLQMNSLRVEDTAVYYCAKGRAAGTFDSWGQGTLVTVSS
VL: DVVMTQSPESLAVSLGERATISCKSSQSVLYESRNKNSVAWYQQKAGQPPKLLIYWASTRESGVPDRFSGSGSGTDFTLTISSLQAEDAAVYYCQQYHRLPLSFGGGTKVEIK

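The parent was found by panning a naive human phage display library on the peptide. AAYL50 was designed without a model: most single CDR substitutions and a random sample of double and triple ones. AlphaSeq pools MATa yeast showing the antibodies with MATalpha yeast showing the peptide. Mating (16 h, 30 °C) was followed by selection of diploids and sequencing of their barcodes. Scores were corrected for input abundance and mapped to Kd with protein pairs of known affinity run in the same pool. The assay was run in three technical replicates.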

Variants are written as CDR1, CDR2 and CDR3 of the light chain (limits as in the source). Parent: KSSQSVLYESRNKNSVA, WASTRES, QQYHRLPLS. Values are log10 of the apparent Kd in nM; lower means stronger binding. Where no diploid with the target was found in that replicate, the entry reads "n.d.": below detection, most likely a poor binder, though not proof of it.

CDR-L1	CDR-L2	CDR-L3	log10 Kd, replicates	control signals
KWSQSVLYESRNKNSVA	WASTRES	QQYHRKPLS	4.31 n.d. 4.91	1 of 9 (2.51)
KSSQSVLRESGNQNSVA	WASTRES	QQYHRLPLS	n.d. n.d. n.d.	0 of 9
KSIQSVLYESRNHNSVA	WASTRES	QQYDRLPLS	n.d. 3.25 n.d.	0 of 9
KSSQSVYYESRNKNSVA	WASTRMS	QQYHRLPLS	0.99 0.91 1.00	3 of 9 (4.64)
KASQSVFYESRNKNSDA	WASTRES	QQYHRLPLS	4.67 4.20 3.74	7 of 9 (4.66)
KSSTSVLYESRNKNSVA	WPSTRES	QQYHRLPLS	n.d. n.d. n.d.	1 of 9 (5.13)
KGKQSVLYESRNKNSVA	WASTRES	QQYLRLPLS	1.45 1.65 1.66	6 of 9 (3.97)
KSSQSRLYESRNKLQVA	WASTRES	QQYHRLPLS	3.45 n.d. n.d.	1 of 9 (3.15)
KSSQSVLNESRNKNSVA	WRSTRES	QQYHRLPAS	4.59 n.d. n.d.	2 of 9 (4.06)
KRSQMVLYESRNKNSVA	WASTRES	GQYHRLPLS	n.d. n.d. n.d.	0 of 9
KISQSVLYESYNKNSVA	WASTRES	EQYHRLPLS	n.d. n.d. n.d.	0 of 9
KSSQSVLYESRNKNSVA	SASTREH	QQKHRLPLS	n.d. n.d. n.d.	0 of 9
KSSQSVLYESRNKASVA	WGSTRES	QQYHRLPLS	0.31 0.42 0.52	1 of 9 (3.43)
KSLQSVLYESRNKNSWA	WASTRES	CQYHRLPLS	n.d. n.d. n.d.	0 of 9
KSSQSVGYESRNKNSVA	WASHRES	QQYGRLPLS	0.42 0.64 0.68	0 of 9
KSSDSVLIESRNKNSVA	WASTRES	QNYHRLPLS	1.80 1.41 1.39	1 of 9 (3.81)
KSSQSVLYEDRNKNRVA	WASTRES	QQYHRFPLS	3.69 2.35 3.07	4 of 9 (4.76)
KSSQSVLYESRSKNSVA	WASTRES	QQYHRQPMS	1.38 1.49 1.50	3 of 9 (4.19)
KASQSVCYESRNKNSVA	WASTREN	QQYHRLPLS	0.64 0.80 0.76	1 of 9 (3.86)
KSSQSVLYDSRNENSVA	WASTRES	QQYHRSPLS	3.47 3.53 2.87	7 of 9 (4.10)
KSSQSVLYESRNKNSVA	AASTRES	QTYHQLPLS	-0.26 0.09 -0.11	7 of 9 (4.58)
KSSMSVLYESRMKYSVA	WASTRES	QQYHRLPLS	1.47 1.17 1.03	0 of 9
KSSQSVLYESRWKQSVA	WASTRES	DQYHRLPLS	n.d. n.d. 5.79	4 of 9 (4.19)
KSSQSVAYESRNKNSVA	PASTRES	QQYHRLPLS	4.91 n.d. 5.67	4 of 9 (4.60)
KSSQSVLYESRNFNSVA	MASTRES	QQYHRLPLH	0.21 0.38 0.22	2 of 9 (4.78)
KSSQSVLYESRNKNSVA	WASTRES	QHYHRRPLG	n.d. n.d. n.d.	0 of 9
KSSQSVLYESRNKNSVA	WADTRES	AQYHRSPLS	n.d. n.d. 4.02	1 of 9 (4.90)
KSSQDVLMESRNKNSVA	WASTSES	QQYHRLPLS	5.48 3.97 n.d.	1 of 9 (3.68)
KSHQSVLYESRNKYSVA	WASTRES	QQYHFLPLS	2.26 2.07 2.19	2 of 9 (3.68)
WSSQSVLYESRNKNSVA	WALTRES	QAYHRLPLS	n.d. n.d. n.d.	1 of 9 (4.34)
KSSQSVLPESRNKNSVA	WASTRTS	QQYNRLPLS	0.92 1.07 0.99	3 of 9 (4.66)
KSSQSVLYESYNKNVVN	WASTRES	QQYHRLPLS	n.d. n.d. n.d.	1 of 9 (3.75)
KSSQSVLYESQNKNSEH	WASTRES	QQYHRLPLS	n.d. 3.01 3.08	5 of 9 (4.46)
KSSQSVLYESRNYNSVD	WASTREH	QQYHRLPLS	n.d. n.d. n.d.	0 of 9
KSSQSVLWESRNKNSVA	WAHTRES	QQYHRLPLS	1.63 1.33 2.00	1 of 9 (3.56)
KSSQSVRYESRNKNSVA	WDSTRES	QIYHRLPLS	n.d. n.d. n.d.	0 of 9

A selection of 5 entries from above:

{"CDR-L1": "KSSTSVLYESRNKNSVA", "CDR-L2": "WPSTRES", "CDR-L3": "QQYHRLPLS", "log10 Kd, replicates": "n.d. n.d. n.d.", "control signals": "1 of 9 (5.13)"}
{"CDR-L1": "KGKQSVLYESRNKNSVA", "CDR-L2": "WASTRES", "CDR-L3": "QQYLRLPLS", "log10 Kd, replicates": "1.45 1.65 1.66", "control signals": "6 of 9 (3.97)"}
{"CDR-L1": "KSSQSVLYESYNKNVVN", "CDR-L2": "WASTRES", "CDR-L3": "QQYHRLPLS", "log10 Kd, replicates": "n.d. n.d. n.d.", "control signals": "1 of 9 (3.75)"}
{"CDR-L1": "KISQSVLYESYNKNSVA", "CDR-L2": "WASTRES", "CDR-L3": "EQYHRLPLS", "log10 Kd, replicates": "n.d. n.d. n.d.", "control signals": "0 of 9"}
{"CDR-L1": "KSSQSVLYESRNKNSVA", "CDR-L2": "WASTRES", "CDR-L3": "QHYHRRPLG", "log10 Kd, replicates": "n.d. n.d. n.d.", "control signals": "0 of 9"}

For reference, the parent read 0.65 as the reference entry and 1.68 as a member of this library. Three control strains display no target. For library AAYL50, 18% of the pairings with them gave a signal, with a median of 4.19 and one signal in twenty below 2.99, so weak values seen in few replicates may be background. Also given: how often the same scFv was detected with the empty control strains, with their mean in brackets.

Values reported by Engelhart et al. 2022, doi:10.1038/s41597-022-01779-4 (FLAb copy).